Earlier results in publication PMC11799299.

Molecular target: eNOS 493-512 (Bos taurus) (UniProt P29473)

For calmodulin (from UniProt P0DP23), the Kd is given as 0.2 nM.
